Nrf2 activator: activates Nrf2 signaling | AREc32 ARE-luciferase reporter (MCF7-derived line), luminescence, 24 h | Potency, µM (series often up to 46.1 µM), hits mostly activators | hit rate 0.31% among 410,000 | AID 624171; also: nearly all actives have a fitted effect of over 65% in size
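AREc32 cells carrying an ARE-driven firefly luciferase, 1000 cells/well in OPTI-MEM with 5% FBS, dosed after overnight attachment and incubated 24 hr at 37 deg C. Steady-Glo luminescence read after 30 min at RT.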
ClpP mod: qHTS Assay for Activators of ClpP; ATP-dependent Clp protease proteolytic subunit (Bacillus subtilis (strain 168)), P80244; purified B. subtilis ClpP, FRET peptide cleavage, 20 min; Potency, µM (titrated, usually from 57.5 µM); hit rate 1.9% among 340,000; AID 651965, 2013; active = well fitted falling curve with a large enough effect; inconclusive = small, poorly fitted or top-dose-only effect; inactive = no such curve, though single readings can be large or run the other way; also: the source files actives as falling curves though it sought activators and does not explain the sign; nearly all actives have a fitted effect of over 65% in size
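Purified B. subtilis ClpP, 10 microg/mL final in Tris/HCl pH8 with KCl, BSA, glycerol and Tween-20, cleaved an Abz/nitrotyrosine-quenched decapeptide. Fluorescence (ex 320, em 430) was read at 0 and 20 min at room temperature. Delta was normalized to 5.8 microM ADEP and DMSO/no-enzyme controls.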
Nrf2 inh: inhibitors of Nrf2 signaling | AID 504444 | hit rate 2.1% among 360,000 | A549 ARE-Fluc reporter, luciferase luminescence, 18-24 h | Potency, µM (series often up to 46 µM), usual class: inhibitors; also: nearly all actives have a fitted effect of over 60% in size
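Quantitative HTS in A549 cells stably bearing an antioxidant response element-firefly luciferase construct. Inhibition of Nrf2-driven transcription was scored by luminescence after 18-24 h of compound exposure at 37 °C.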
A549 viability: counter-screen for Nrf2 inhibitors: cytotoxicity in A549 cells; A549 ARE-Fluc cells, CellTiter-Fluor viability, 18-24 h; Potency, µM (doses to about 46 µM), hits mostly inhibitors; hit rate 0.16% among 390,000
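A549 ARE_Fluc cells in 5% FBS OPTI-MEM were exposed to compounds in concentration-response for 18-24 h at 37 deg C. Viability was read by CellTiter-Fluor fluorescence (Ex 405/Em 525) after 30 min, before the luciferase read.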
miR-21 reporter: miR-21 reporter, rising signal | HeLa miR-21 FLuc reporter, luciferase, 48 h | Potency, µM (top dose mostly 38.3 µM) | 340,000 tested, under 10 active | AID 2288; active = well fitted rising curve with a large enough effect; inconclusive = small, poorly fitted or top-dose-only effect; inactive = no such curve, though single readings can be large or run the other way;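 note: miR-21 action dims this reporter so a rising signal means less miR-21 action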
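Luminescence from a firefly luciferase reporter carrying a miR-21 binding site downstream, stably expressed under a CMV promoter in HeLa cells that make miR-21 endogenously, reports miRNA modulation after 48 h compound exposure up to approximately 40uM final.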
p53 reactivation: restores transcriptional activity of mutant p53 | H1299 p53-A138V BP100-luciferase reporter, luminescence, 24 h | Potency, µM (highest dose often 92.2 µM), hits mostly activators | hit rate 0.063% among 320,000 | AID 504706; also: nearly all actives have a fitted effect of over 45% in size
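H1299 (p53-null), stable ts p53-A138V + BP100-Luc; 1000 cells/well, Opti-MEM/10% FBS; cpd 4 pt, 1:5; 24 h, 37 deg C, 5% CO2; detection reagent 10 min RT; luminescence.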
A number is an active result. A selection: hits, their analogues and other compounds. The true share with any hit is near 3.7%. Unless noted, calls follow the shape of the dose curve; as a rule, active = well fitted curve in the direction sought with a large enough effect; inconclusive = small, poorly fitted or top-dose-only effect, or another doubt; inactive = no such curve, though single readings can be large; an effect the other way counts as inactive or inconclusive.

What do the screens show for `O=C(Cc1ccccc1)Nc1cccc(-c2nc3ncccc3o2)c1`?
Nrf2 activator: inactive; ClpP mod: 28.2µM; Nrf2 inh: inconclusive; A549 viability: inactive; miR-21 reporter: inactive; p53 reactivation: inactive

How did O=C(Cc1ccccc1)Nc1cccc(-c2nc3cccnc3s2)c1 do in these assays?
Nrf2 activator: inactive; ClpP mod: 35.5µM; Nrf2 inh: inactive; A549 viability: inactive; miR-21 reporter: inactive

How did COCC(=O)Nc1cccc(-c2nc3cccnc3s2)c1 do in these assays?
Nrf2 activator: inconclusive; ClpP mod: inactive; Nrf2 inh: inactive; A549 viability: inactive; miR-21 reporter: inactive

How did O=S1(=O)N=C(OCc2ccccc2)c2ccccc21 do in these assays?
Nrf2 inh: inconclusive; A549 viability: inactive

What do the screens show for `Cc1cc(Nc2cccc(C)c2C)n2cnnc2n1`?
Nrf2 activator: inactive; ClpP mod: inactive; Nrf2 inh: inconclusive; A549 viability: inactive; miR-21 reporter: inactive

How did Cc1ccc(S(N)(=O)=O)cc1NC(=O)/C=C/c1cccs1 do in these assays?
Nrf2 activator: 12.6µM; ClpP mod: inactive; A549 viability: inactive; miR-21 reporter: inactive; p53 reactivation: inactive

What do the screens show for `NS(=O)(=O)c1ccc(NC(=S)NC(=O)/C=C/c2cccs2)cc1`?
Nrf2 activator: inactive; Nrf2 inh: inactive; A549 viability: inactive; miR-21 reporter: inactive; p53 reactivation: inactive

How did O=C1CSC2(C(=O)N(Cc3cccc(C(F)(F)F)c3)c3ccccc32)N1c1ccc(F)c(F)c1 (stereo not given) do in these assays?
Nrf2 activator: inactive; ClpP mod: inactive; Nrf2 inh: inconclusive; A549 viability: inconclusive; miR-21 reporter: inactive

Results for O=C1CSC2(C(=O)N(Cc3cccc(F)c3)c3ccccc32)N1c1cccc(C(F)(F)F)c1 (stereo not given) ?
Nrf2 activator: inactive; ClpP mod: inactive; Nrf2 inh: 23.1µM; A549 viability: inactive; miR-21 reporter: inactive

How did CN(Cc1cccs1)c1ncnc2ccc(-c3ccc4cnn(C)c4c3)cc12 do in these assays?
Nrf2 inh: inactive; A549 viability: inconclusive

What do the screens show for `COc1ccc(-c2cc(-c3c(O)c(OC)c4occc4c3OC)[nH]n2)cc1OC`?
Nrf2 activator: inactive; ClpP mod: inactive; Nrf2 inh: 13µM; A549 viability: inconclusive; miR-21 reporter: inactive; p53 reactivation: inactive

Results for CC12CCC(c3nnc(SCc4ccc(Cl)cc4)nc31)C2(C)C (stereo not given) ?
Nrf2 activator: inactive; ClpP mod: 20µM; Nrf2 inh: inactive; A549 viability: inactive; miR-21 reporter: inactive; p53 reactivation: inactive

How did CC(=O)Nc1ccc(C(=O)OCC(=O)N(c2ccccc2)C2CCS(=O)(=O)C2)cc1 (stereo not given) do in these assays?
Nrf2 activator: inactive; ClpP mod: inactive; Nrf2 inh: inconclusive; A549 viability: inactive; p53 reactivation: inactive

How did O=C(CCl)N(c1ccccc1)C1CCS(=O)(=O)C1 (stereo not given) do in these assays?
Nrf2 activator: inactive; ClpP mod: inactive; Nrf2 inh: 23.1µM; A549 viability: inconclusive; miR-21 reporter: inconclusive; p53 reactivation: inactive

Results for CC1CCN(S(=O)(=O)c2ccc3c(c2)c(=O)c(C(=O)NCc2ccc(Cl)cc2)cn3C)CC1 ?
Nrf2 activator: inactive; ClpP mod: inactive; Nrf2 inh: inactive; A549 viability: inactive; miR-21 reporter: inactive

What do the screens show for `CCCNC(=O)C1(C)CCCN(C(=O)c2cccc(Cl)c2)C1` (stereo not given)?
Nrf2 activator: inactive; ClpP mod: inactive

What do the screens show for `Cc1nn(C)cc1C(C)NC(=O)c1cc(COc2cccc3cnccc23)on1` (stereo not given)?
Nrf2 activator: inactive; ClpP mod: 15.8µM; Nrf2 inh: 10.3µM; A549 viability: inactive; miR-21 reporter: inactive; p53 reactivation: inactive

What do the screens show for `CCOC(=O)c1ccc(-c2ccc(/C=N/NC(=O)CN(c3ccccc3Br)S(C)(=O)=O)o2)cc1`?
Nrf2 activator: inactive; ClpP mod: 17.8µM; Nrf2 inh: inactive; A549 viability: inactive; miR-21 reporter: inactive; p53 reactivation: inactive

Results for CS(=O)(=O)N(CC(=O)N/N=C/c1cccc2c1OCCO2)c1ccccc1Br ?
Nrf2 activator: inactive; ClpP mod: inconclusive; Nrf2 inh: inactive; A549 viability: inactive; miR-21 reporter: inactive; p53 reactivation: inactive

Results for Cc1ccc(S(=O)(=O)N2CCN(C(=O)COC(=O)CNC(=O)c3ccc(Cl)cc3Cl)CC2)c(C)c1 ?
Nrf2 activator: inactive; ClpP mod: inactive; Nrf2 inh: inactive; A549 viability: inactive

How did COc1ccc(OCC(=O)NC(Cc2c[nH]c3ccccc23)C(=O)O)cc1 (stereo not given) do in these assays?
Nrf2 activator: inactive; ClpP mod: inactive; Nrf2 inh: inactive; A549 viability: inactive; miR-21 reporter: inactive

How did CCOC(=O)c1cnc2c(ccc3ccccc32)c1NCCN(C)C do in these assays?
Nrf2 activator: inactive; ClpP mod: inactive; Nrf2 inh: inactive; A549 viability: inactive; miR-21 reporter: inactive

What do the screens show for `CCOC(=O)c1cnc2ccc(OC)cc2c1NCc1ccccc1`?
Nrf2 activator: inactive; ClpP mod: inactive; Nrf2 inh: inactive; A549 viability: inactive; miR-21 reporter: inactive; p53 reactivation: inactive

Results for CCOC(=O)c1cnc2c(ccc3ccccc32)c1NCCO ?
Nrf2 activator: inactive; ClpP mod: 28.2µM; A549 viability: inactive; miR-21 reporter: inactive; p53 reactivation: inactive

Results for CCOC(=O)c1cnc2ccc(OCC)cc2c1NCc1ccccc1OC ?
Nrf2 activator: inactive; ClpP mod: 22.4µM; Nrf2 inh: 6.51µM; A549 viability: 11.6µM; miR-21 reporter: inactive; p53 reactivation: inactive

How did CCOC(=O)c1cnc2ccc(OC)cc2c1NCCc1ccccc1 do in these assays?
Nrf2 activator: inactive; ClpP mod: inactive; Nrf2 inh: 23.1µM; A549 viability: inconclusive; miR-21 reporter: inconclusive

How did CCOC(=O)c1cnc2ccc(OCC)cc2c1Nc1cc(Cl)c(OC)cc1OC do in these assays?
Nrf2 activator: inactive; ClpP mod: inactive; Nrf2 inh: inactive; A549 viability: inactive; miR-21 reporter: inactive

Results for CCOC(=O)c1cnc2ccc(OC)cc2c1Nc1cccc(C(C)=O)c1 ?
Nrf2 activator: inactive; ClpP mod: inactive; Nrf2 inh: 16.4µM; A549 viability: inconclusive; miR-21 reporter: inactive

Results for CCOC(=O)c1cnc2c(ccc3ccccc32)c1Nc1cccc(OC)c1 ?
Nrf2 activator: inactive; ClpP mod: inactive; Nrf2 inh: inactive; A549 viability: inactive; miR-21 reporter: inactive

Results for COc1ccc(C2Nc3ccccc3C(=O)N2Cc2ccccc2)cc1COc1cccc(Cl)c1 (stereo not given) ?
Nrf2 inh: inactive; A549 viability: inactive
